Measurements published in ChEMBL document CHEMBL1158369, “Hansch analysis of substituted benzoic acid benzylidene/furan-2-yl-methylene hydrazides as antimicrobial agents” (Eur J Med Chem, 2009).

Assay: Lipophilicity, log P of the compound
Conditions: octanol/water

With `O=C(N/N=C/c1cccc([N+](=O)[O-])c1)c1cc([N+](=O)[O-])cc([N+](=O)[O-])c1` the logP was 3.29.
